# Experimental data: PubChem BioAssay AID488960 (Johns Hopkins Ion Channel Center, 2010)
# The chains behind the UniProt entries cited, without tags or fusion partners. Where a name states a change or a piece, a line headed by the entry shows the natural chain unless it says otherwise.
# UniProt Q61143: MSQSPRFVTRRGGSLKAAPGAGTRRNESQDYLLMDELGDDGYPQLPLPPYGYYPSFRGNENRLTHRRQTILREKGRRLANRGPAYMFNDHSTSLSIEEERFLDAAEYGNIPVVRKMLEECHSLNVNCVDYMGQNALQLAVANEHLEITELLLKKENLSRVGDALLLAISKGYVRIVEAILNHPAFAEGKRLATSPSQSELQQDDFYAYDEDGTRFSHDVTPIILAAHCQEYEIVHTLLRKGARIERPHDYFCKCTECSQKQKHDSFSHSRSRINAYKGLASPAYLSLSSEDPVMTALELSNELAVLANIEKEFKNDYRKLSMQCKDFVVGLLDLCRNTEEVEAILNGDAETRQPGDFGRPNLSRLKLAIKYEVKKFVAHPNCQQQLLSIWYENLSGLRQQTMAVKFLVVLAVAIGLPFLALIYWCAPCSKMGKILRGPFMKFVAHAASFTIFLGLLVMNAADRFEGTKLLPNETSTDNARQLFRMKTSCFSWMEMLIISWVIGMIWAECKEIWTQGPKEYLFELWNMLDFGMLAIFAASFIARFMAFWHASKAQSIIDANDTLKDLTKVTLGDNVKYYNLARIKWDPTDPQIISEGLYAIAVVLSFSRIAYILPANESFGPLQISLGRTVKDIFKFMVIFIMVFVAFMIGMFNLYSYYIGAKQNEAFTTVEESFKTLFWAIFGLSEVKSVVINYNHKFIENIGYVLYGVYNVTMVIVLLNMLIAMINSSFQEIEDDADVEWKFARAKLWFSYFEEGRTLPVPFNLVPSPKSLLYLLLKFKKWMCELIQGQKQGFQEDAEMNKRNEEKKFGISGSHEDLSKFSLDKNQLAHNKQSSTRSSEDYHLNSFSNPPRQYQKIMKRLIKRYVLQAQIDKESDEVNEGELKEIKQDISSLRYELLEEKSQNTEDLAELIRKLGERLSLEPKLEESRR
# The entries are a selection whose mix differs from that of the whole data set. Active and inactive are the calls of the source.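 Rule for the calls: active = fluorescence ratio falls more than 5 SD below the full-stimulation control mean, in both duplicate runs; inactive = the rest.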
# Target: Short transient receptor potential channel 6 (Mus musculus) (UniProt Q61143)
# Assay: blockers of TRPC6 cation channel activity – HEK293 cells, membrane potential dye, duplicate, confirmation (AID 488960);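 note: integrated fluorescence ratio of peak minus minimum over baseline after agonist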
# Details: ACh-evoked depolarization, at 10 µM, active compounds read high
row,SMILES,inhibition
1,O=[N+]([O-])c1ccc(O)c(/C=N/Nc2ccc([N+](=O)[O-])cc2[N+](=O)[O-])c1,inactive: 0%
2,CN1CCCC(OC(=O)C(c2ccccc2)c2ccccc2)C1 (centres undefined),inactive: 0%
3,O=C(OC1CN2CCC1CC2)C12CC3CC(CC(C3)C1)C2 (centres undefined),active: 77.5%
4,CCC1=CC2Cc3nc4ccc(Cl)cc4c(N)c3C(C1)C2 (centres undefined),active: 110%
